The target in the assay is GST-Xa-hAAK1 (Homo sapiens (Human), UniProt Q2M2I8). Put plainly: biochemical. Here is the method: The assays were performed in U-bottom 384-well plates. […] The reactions were initiated by the combination of bacterially expressed, GST-Xa-hAAK1 with substrates and test compounds. The reactions were incubated at room temperature for 3 hours and terminated by adding 60 μl of 35 mM EDTA buffer to each sample. The reactions were analyzed on the Caliper LabChip 3000 (Caliper, Hopkinton, Mass.) by electrophoretic separation of the fluorescent substrate and phosphorylated product. […] Compounds were dissolved at 10 mM in dimethylsulfoxide (DMSO) and evaluated at eleven concentrations. IC50 values were derived by non-linear regression analysis.

Amino acid sequences for entries named in this document (tags omitted). A change or cut given only in a name is not applied to a line headed by its entry.
UniProt Q2M2I8: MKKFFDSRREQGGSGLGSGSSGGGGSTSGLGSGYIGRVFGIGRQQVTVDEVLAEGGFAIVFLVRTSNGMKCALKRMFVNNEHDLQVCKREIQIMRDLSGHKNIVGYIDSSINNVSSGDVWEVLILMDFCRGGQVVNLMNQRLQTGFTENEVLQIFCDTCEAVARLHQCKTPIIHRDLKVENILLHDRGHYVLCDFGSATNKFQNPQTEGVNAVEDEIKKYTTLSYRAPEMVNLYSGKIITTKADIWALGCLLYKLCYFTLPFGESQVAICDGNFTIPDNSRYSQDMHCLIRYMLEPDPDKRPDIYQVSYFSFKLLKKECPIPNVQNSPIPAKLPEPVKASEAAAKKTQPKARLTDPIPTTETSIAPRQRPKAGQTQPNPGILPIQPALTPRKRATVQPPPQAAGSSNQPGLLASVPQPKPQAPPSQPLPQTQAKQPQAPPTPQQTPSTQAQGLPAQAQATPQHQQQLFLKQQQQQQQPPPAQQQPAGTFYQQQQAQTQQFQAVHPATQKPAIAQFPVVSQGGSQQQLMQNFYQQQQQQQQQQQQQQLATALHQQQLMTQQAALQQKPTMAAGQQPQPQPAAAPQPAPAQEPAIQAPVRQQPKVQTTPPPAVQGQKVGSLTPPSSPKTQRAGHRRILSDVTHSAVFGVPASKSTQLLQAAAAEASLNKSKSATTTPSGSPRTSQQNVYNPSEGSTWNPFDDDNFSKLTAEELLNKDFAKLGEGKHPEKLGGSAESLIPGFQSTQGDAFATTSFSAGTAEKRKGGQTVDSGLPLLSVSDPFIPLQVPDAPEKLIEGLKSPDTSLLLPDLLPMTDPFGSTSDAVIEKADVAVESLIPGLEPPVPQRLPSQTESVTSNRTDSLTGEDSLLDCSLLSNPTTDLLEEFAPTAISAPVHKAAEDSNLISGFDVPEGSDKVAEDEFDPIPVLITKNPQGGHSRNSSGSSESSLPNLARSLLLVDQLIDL

The results in this text go back to patent US10035777B2, “Heterocyclic kinase inhibitors” (priority 2014, dated 2018).

Take `CN[C@@H](c1nc2cc(-c3ccncc3)ccc2[nH]1)C1CCCCC1` [Example 60, (R)-1-Cyclohexyl-N-methyl-1-(5-(pyridin-4-yl)-1H-benzo[d]imidazol-2-yl)methanamine]: the IC50 was determined as 8 nM.

What is called IC50 is the concentration at which inhibition is half-maximal.
